ChEMBL document CHEMBL5120744, “Dual acting oximes designed for therapeutic decontamination of reactive organophosphates via catalytic inactivation and acetylcholinesterase reactivation” (2021)

Assay: Permeability of compound by PAMPA assay

Row | Compound | permeability [×10⁻⁶ cm/s]
1 | CCN(CC)CCNC(=O)/C=N/O | 1.1
2 | NCC(O)CNC(=O)/C=N/O (stereo not given) | 0.81
3 | CN(C)CCCNC(=O)/C=N/O | 1.8
4 | C[N+](C)(C)CCNC(=O)/C=N/O.[I-] | 1.6
5 | O=C(/C=N/O)NCCN1CCCC1 | 1.1
6 | NCCNC(=O)/C=N/O | 1.4
7 | CC(=O)/C(C)=N/O | 6
8 | O=C(/C=N/O)NCC(O)CO (stereo not given) | 0.61
9 | O=C(/C=N/O)NCc1ncc[nH]1 | 1.1
10 | CN(C)CCNC(=O)/C=N/O | 2.2
